Values quoted from earlier work, collected in PMC7607624 (Journal of nuclear medicine : official publication, Society …, 2013).

Details: in vivo; cited from earlier work

18F-FDG
Organ dose, Adrenals: 13 μGy/MBq | Organ dose, Brain: 19 μGy/MBq | Organ dose, Breasts: 9.2 μGy/MBq | Organ dose, Gallbladder Wall: 14 μGy/MBq | Organ dose, Heart Wall: 60 μGy/MBq | Organ dose, Kidneys: 20 μGy/MBq | Organ dose, Lower Large Intestine Wall: 17 μGy/MBq | Organ dose, Lungs: 17 μGy/MBq | Organ dose, Muscle: 11 μGy/MBq | Organ dose, Ovaries: 17 μGy/MBq | Organ dose, Red Marrow: 13 μGy/MBq | Organ dose, Small Intestine: 14 μGy/MBq | Organ dose, Stomach Wall: 13 μGy/MBq | Organ dose, Testes: 13 μGy/MBq | Organ dose, Upper Large Intestine Wall: 13 μGy/MBq | Organ dose, Urinary Bladder Wall: 190 μGy/MBq
